Experimental data: ChEMBL document CHEMBL1149785, “Synthesis and biological evaluation of helicid analogues as novel acetylcholinesterase inhibitors” (Eur J Med Chem, 2008)
pIC50: −log10 of the molar value.

The chains behind the UniProt entries cited, without tags or fusion partners. Residues count along the entry.
UniProt O42275, 24-633 limits assumed: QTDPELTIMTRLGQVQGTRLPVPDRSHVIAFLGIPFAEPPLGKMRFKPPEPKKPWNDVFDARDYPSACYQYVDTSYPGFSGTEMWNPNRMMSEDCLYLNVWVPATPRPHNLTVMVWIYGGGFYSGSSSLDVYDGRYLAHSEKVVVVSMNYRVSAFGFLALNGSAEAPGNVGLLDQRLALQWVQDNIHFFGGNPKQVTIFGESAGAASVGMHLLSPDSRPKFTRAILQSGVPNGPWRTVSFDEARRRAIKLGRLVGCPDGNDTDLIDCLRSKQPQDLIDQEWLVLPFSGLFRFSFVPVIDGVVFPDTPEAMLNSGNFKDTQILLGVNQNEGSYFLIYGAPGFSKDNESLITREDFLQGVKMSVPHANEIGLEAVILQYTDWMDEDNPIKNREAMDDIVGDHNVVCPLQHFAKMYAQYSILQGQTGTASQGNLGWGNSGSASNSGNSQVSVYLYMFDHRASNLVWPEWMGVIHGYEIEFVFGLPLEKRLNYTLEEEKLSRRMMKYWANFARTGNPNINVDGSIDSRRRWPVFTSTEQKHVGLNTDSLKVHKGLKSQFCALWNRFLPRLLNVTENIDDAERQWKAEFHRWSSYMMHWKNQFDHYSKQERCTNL
UniProt P81908, whole entry, looked up: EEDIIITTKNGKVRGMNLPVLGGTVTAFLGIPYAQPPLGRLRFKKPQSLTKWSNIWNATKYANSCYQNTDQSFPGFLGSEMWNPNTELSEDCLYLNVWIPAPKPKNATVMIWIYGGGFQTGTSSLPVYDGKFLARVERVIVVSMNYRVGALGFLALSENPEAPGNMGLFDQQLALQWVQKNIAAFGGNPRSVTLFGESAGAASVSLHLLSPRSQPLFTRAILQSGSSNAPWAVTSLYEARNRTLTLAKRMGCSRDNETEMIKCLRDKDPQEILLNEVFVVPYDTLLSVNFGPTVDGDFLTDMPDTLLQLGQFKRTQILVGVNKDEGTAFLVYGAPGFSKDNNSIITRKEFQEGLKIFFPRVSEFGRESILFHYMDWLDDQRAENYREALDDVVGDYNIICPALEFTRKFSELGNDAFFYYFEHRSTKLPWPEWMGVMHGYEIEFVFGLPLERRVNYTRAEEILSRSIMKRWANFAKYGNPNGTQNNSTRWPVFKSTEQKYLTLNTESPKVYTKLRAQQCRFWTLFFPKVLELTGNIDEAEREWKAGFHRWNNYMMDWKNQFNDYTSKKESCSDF

Tests used:
[1] = molecular target: Acetylcholinesterase (Electrophorus electricus, UniProt O42275); experiment: Inhibition of Electrophorus electricus AChE by Ellman's method
[2] = molecular target: Cholinesterase (Equus caballus, UniProt P81908); experiment: Inhibition of horse serum BuChE by Ellman's method

Row | SMILES | pIC50 [1] | pIC50 [2]
1 | OC[C@H]1O[C@@H](Oc2ccc(/C=N/O)cc2)[C@H](O)[C@@H](O)[C@@H]1O | 5.32 | –
2 | O=C(O[C@H]1[C@H](Oc2ccc(/C=N/O)cc2)OC[C@@H](OC(=O)c2ccccc2)[C@H]1OC(=O)c1ccccc1)c1ccccc1 | 4.90 | 4.40
3 | CC(=O)OC[C@H]1O[C@@H](Oc2ccc(/C=N/O)cc2)[C@H](OC(C)=O)[C@@H](OC(C)=O)[C@@H]1OC(C)=O | 5.04 | –
